Data published in US20230009366A1, “Using Alternating Electric Fields at Different Frequencies to Increase Permeability of the Blood Brain Barrier and also to Provide Other Benefits” (Novocure GmbH, priority 2021, published 2023).

System: GBM39/Luc cells
Assay: Drug sensitivity / synergy with TTFields
Assay type: cell-based, human

In the case of `O=NN(CCCl)C(=O)NC1CCCCC1` [Lomustine], the “synergy of TTFields plus drug” value is reported as “synergy was found”.
